According to patent US20170348381A1, “FORMULATION” (NovaBiotics Limited, priority 2016, published 2017):

System: E. dermatitidis
Test: Antimicrobial susceptibility testing (CLSI M27-A3/M38-A2, chequerboard), MIC100, Example 2
Type: cell-based

Q: With `OC(Cn1cncn1)(Cn1cncn1)c1ccc(F)cc1F` [FCZ, fluconazole] as the compound, how does the MIC (Exophiala dermatitidis, antifungal alone) read?
A: > 256 µg/mL

Q: What about the “MIC100 of the antifungal in combination with Novamycin (+)” value (in combination with MIC100 and sub-MIC100 concentrations of Novamycin) of the same compound?
A: >256 µg/mL
